For test [1], the target named is Muscarinic acetylcholine receptor M3 (Homo sapiens, UniProt P20309).
Test [2] concerns the target Muscarinic acetylcholine receptor M1 (Homo sapiens, UniProt P11229).

Sequences of proteins named here, by UniProt entry; tags and fusion partners are left off. A change or cut given only in a name is not applied to a line headed by its entry.
UniProt P20309, whole entry: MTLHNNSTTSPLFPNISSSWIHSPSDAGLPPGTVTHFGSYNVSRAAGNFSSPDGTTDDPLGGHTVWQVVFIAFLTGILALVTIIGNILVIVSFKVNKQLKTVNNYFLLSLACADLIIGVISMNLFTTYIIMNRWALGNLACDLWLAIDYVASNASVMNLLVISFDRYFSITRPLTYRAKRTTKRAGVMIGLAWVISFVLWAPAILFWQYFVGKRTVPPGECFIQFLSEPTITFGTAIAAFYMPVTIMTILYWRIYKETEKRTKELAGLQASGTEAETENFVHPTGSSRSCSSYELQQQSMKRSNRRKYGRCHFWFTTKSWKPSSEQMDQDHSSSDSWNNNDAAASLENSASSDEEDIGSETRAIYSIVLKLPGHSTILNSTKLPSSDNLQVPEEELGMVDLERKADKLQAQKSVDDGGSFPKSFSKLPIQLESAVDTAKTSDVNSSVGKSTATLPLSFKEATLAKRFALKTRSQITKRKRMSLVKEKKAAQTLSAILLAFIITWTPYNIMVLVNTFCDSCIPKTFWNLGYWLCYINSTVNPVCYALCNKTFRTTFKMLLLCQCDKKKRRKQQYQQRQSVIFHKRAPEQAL
UniProt P11229: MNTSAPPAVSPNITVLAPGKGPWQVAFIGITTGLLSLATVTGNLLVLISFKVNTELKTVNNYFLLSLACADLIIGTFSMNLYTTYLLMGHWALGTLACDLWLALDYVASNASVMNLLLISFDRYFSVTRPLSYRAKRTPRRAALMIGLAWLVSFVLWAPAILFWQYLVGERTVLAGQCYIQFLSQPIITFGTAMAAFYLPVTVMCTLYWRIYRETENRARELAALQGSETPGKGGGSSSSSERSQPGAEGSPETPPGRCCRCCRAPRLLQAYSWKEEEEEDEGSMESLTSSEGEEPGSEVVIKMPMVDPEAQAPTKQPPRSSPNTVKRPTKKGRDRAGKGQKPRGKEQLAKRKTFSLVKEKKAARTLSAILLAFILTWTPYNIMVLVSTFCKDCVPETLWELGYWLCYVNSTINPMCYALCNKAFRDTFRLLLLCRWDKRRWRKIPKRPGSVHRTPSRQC

Molecules are shown by their SMILES.

Broadly, the Ki is a dissociation constant, usually derived from enzyme kinetics or from competition with a known ligand. For the molecule `CN1CCN(C2=c3ccccc3=Nc3ccc(Cl)cc3N2)CC1` [6-chloro-10-(4-methylpiperazin-1-yl)-2,9-diazatricyclo[9.4.0.0^{3,8}]pentadeca-1,3(8),4,6,10,12,14-heptaene], the inhibition constant (Ki) in test [1] turned out to be 109 nM; in test [2], 31 nM.

These data come from BindingDB's records for doi:10.1016/s0014-2999(00)00037-6 (Eli Lilly, 2000).
